System: Mono Mac 6 cells
Assay: Micro array gene expression profiling (HG_U95Av2 chip) of Mono Mac 6 cells following allergen treatment
Type: cell-based, human
Details: for Number of up regulated genes: Mono Mac 6 cells
Experimental: The cell line Mono Mac 6 (AstraZeneca Cell Storage and Retrieval, Alderley Park, UK) was cultivated in RPMI 1640 medium with 10 mM HEPES buffer (Gibco, UK), 2 mM L-glutamine, 9 μg/mL human insulin, 1.0 mM sodium pyruvate, 10% fetal bovine serum, 5.6 μl/mL glucose, 100 U/mL penicillin and 100 μg/ml streptomycin. Fresh medium for cultivation was added or changed frequently (every 2:nd or 3:rd day), maintaining a cell density of viable cells/mL between 0.5×10^6 and 1.0×10^6. The cell line was in suspension/loosely adherent and sub cultures were prepared when needed by scraping. The plates were cultivated in an inclined position at 37° C. and 5% CO2 in a Galaxy R (Lab Rum Klimat Ab, Sweden) incubator
Cells were treated with four different allergens, according to table 2, in duplicate cultures. The test substances were all diluted in double distilled water. The duplicate cultures were treated at different exposure days. All treatments were 6 hours and control cells were left unexposed.
Benzylpenicillin sodium salt (PenicillinG) was 13752, Sigma Aldrich, Germany; Albumin human was A9511, Sigma Aldrich, Germany and Aspergillus fumigatus was ALK15142 from Apoteket, Sweden and contained, except relevant allergen, also glycerol, sodium chloride, sodium hydrogen carbonate and water for injection^33. 20 individual cultures with 500 000 cells per culture were treated identical for each substance. After 6 h exposure identical treated cells were harvest and pooled into a 50 ml Falcontube, pelleted at 540 g for 5 minutes in 7° C. The supernatant was discarded and the cells were washed in phosphate-buffered saline (with 0.5% bovine serum albumin), transferred to an eppendorftube and centrifuged at 150 g for 2 minutes at room temperature. The supernatant was removed and the cells were freeze-dried with liquid nitrogen and thereafter put into −152° C. freezer until further preparation.
Experimental procedures were performed according to Gene Chip®Expression Analysis Technical Manual (rev1, 2001) with minor modifications as described. Total RNA was prepared from frozen cells, according to Qiagen Rneasy Mini kit (Qiagen/WVR, Sweden). 30 μg of total RNA was used for cDNA synthesis and in vitro transcript labeling with biotin was performed according to Enzo BioArray RNA Transcription Labeling Kit (Enzo, U.S.A). cRNA quality was analyzed on a Agilent Bioanalyser 2001 (Agilent Technologies, U.S.A) and the concentration was measured on a Nano Droop (Saveen Werner, Sweden). 15 μg of fragmented cRNA was added to the hybridization-cocktail and hybridized to the HG_U95Av2 chip (Affymetrix, U.S.A) for 16 h at 45° C. The arrays were washed and stained with biotinylated anti streptavidin antibodies according to the EukGE_W2v4 protocol (Affymetrix, U.S.A) in the fluid station (Affymetrix, U.S.A).
Data obtained were analyzed using the MAS 5.0 model base. A detection call was calculated for all probe sets, representing if the transcript of a particular gene was present or absent, all absent genes were excluded from analysis.
To verify outliers and trends in data exploratory analysis was made with principle component analysis (PCA). Statistic analysis was made using student's t-test. It weights the variance in individual groups with the variance in all groups. Student's t-test was used to test for statistical significance compared with control. The p-value obtained describes the probability of statistically finding a false positive probe set. Fold change (fc) represents the quotient between the two compared chip.
The average signal value from all treated groups were compared with control signals.
All probe sets with signal value<50 in all groups were excluded from analysis. […] The remaining probe sets were ranked after fc.

albumin: Albumin human A9511, Sigma Aldrich; non allergenic protein
Number of up regulated genes (cut off fc >2): 4 | Number of up regulated genes (cut off fc >4): 1 | Number of up regulated genes (cut off fc >6): 0 | Number of up regulated genes (cut off fc >10): 0 | vs ctrl fc, GNB2 (gene GNB2): 3.0 | vs ctrl fc, IFITM3 (gene IFITM3): 2.7 | vs ctrl fc, SPR (gene SPR (Sepiapterin reductase)): 4.3 | vs ctrl fc, XK (gene XK): 3.0

Reference: US20120088688A1, “IN VITRO ASSAY FOR IDENTIFICATION OF ALLERGENIC PROTEINS” (BIOVATOR TECHNOLOGIES AB, priority 2005, published 2012)
